Results on one compound are retold here after PubChem BioAssay AID588490 (The Scripps Research Institute Molecular Screening Center, 2011).

Protein sequences, listed by entry. Tags and fused reporters are not part of them.
UniProt Q9UM07, whole entry, looked up: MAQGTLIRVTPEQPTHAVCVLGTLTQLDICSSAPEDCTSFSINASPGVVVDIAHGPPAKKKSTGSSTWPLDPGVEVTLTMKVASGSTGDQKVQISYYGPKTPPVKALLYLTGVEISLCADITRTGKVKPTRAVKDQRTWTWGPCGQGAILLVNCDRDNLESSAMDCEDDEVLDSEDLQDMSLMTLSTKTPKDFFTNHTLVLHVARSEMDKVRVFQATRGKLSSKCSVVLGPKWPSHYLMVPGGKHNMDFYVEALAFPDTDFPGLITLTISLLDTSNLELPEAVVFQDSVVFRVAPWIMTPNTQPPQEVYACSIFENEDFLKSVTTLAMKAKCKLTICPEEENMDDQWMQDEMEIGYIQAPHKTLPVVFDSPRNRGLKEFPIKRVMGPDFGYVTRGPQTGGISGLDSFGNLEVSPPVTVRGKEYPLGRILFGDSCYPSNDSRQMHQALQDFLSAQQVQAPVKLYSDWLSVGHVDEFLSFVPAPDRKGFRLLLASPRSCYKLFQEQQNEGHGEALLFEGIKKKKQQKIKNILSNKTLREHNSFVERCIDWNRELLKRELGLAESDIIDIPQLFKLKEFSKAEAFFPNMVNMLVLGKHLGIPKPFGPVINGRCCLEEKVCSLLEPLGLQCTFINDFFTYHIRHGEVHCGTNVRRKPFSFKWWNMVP

This assay deals with Protein-arginine deiminase type-4 (Homo sapiens) (UniProt Q9UM07). Put plainly: PubChem AID 588490. The note with it: recombinant PAD1-4, BAEE citrulline colorimetric absorbance; PAD4.

The structures appear in SMILES notation.

For the compound `NC1=CC(=O)c2ccc(-c3cccc(C(=O)O)n3)nc2C1=O`, the IC50 is 240 nM.
